Results as given in paper PMC7415729 (Pharmacology, biochemistry, and behavior, 2020).

Amino acid sequences for entries named in this document (tags omitted).
UniProt P47746, whole entry: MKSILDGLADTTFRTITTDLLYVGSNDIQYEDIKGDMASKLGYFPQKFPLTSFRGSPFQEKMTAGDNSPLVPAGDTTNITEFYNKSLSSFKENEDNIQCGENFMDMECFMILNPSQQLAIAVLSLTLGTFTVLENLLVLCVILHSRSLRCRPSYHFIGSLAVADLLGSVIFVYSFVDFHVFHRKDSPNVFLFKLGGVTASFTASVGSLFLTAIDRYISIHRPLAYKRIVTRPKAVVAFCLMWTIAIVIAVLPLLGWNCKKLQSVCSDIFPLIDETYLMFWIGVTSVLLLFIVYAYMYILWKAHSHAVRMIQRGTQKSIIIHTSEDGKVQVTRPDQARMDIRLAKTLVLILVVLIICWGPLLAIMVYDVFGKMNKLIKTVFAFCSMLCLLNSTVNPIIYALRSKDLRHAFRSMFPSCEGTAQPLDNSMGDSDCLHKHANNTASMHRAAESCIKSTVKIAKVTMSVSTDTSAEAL

Tests used:
CB1 receptors [1] = biological target: T1, CB1 receptors (Mus musculus, UniProt P47746); assay: [35S]GTPγS binding
CB1 receptors [2] = biological target: T1, CB1 receptors; assay: Competition receptor binding vs [3H]CP-55,940 in mouse brain membranes; details: displacement of 0.2 nM [3H]CP-55,940, mouse brain membranes, N=3

CCCCCc1cc(O)c2c(c1)OC(C)(C)[C@@H]1CCC(C)=C[C@@H]21 [Δ^9-THC, Δ^9-tetrahydrocannabinol]
G protein activation by 1 μM compound on co-incubation with rimonabant (CB1 receptors [1]; 1 μM compound + rimonabant 100 nM, mouse brain membranes): complete reversal
Emax, increase of [35S]GTPγS binding (CB1 receptors [1]; mouse brain membranes 25 μg, N=3): approximately 142.2 +/− 2.2%
pEC50, [35S]GTPγS binding (CB1 receptors [1]; mouse brain membranes, N=3): 7.672 +/− 0.158
EC50 (CB1 receptors [1]; read-out: potency (EC50), [35S]GTPγS binding, mouse brain membranes 25 μg, N=3): 24.5 nM
pKi (CB1 receptors [2]): 7.847 +/− 0.12
